Laboratory results reported in PubChem BioAssay AID624377 (The Scripps Research Institute Molecular Screening Center, 2012).
Only a part is listed here, and it is no random draw. Some tests of the compounds listed are not included; inactive here does not mean inactive elsewhere. The source made the active and inactive calls. No stated cut-off is given here; in the data, active means inhibition above about 25%; inactive means the rest.

By UniProt entry, the sequences of proteins in these tests, tags left out. Residues count along the entry.
UniProt Q9ULH1, 325-724 limits assumed: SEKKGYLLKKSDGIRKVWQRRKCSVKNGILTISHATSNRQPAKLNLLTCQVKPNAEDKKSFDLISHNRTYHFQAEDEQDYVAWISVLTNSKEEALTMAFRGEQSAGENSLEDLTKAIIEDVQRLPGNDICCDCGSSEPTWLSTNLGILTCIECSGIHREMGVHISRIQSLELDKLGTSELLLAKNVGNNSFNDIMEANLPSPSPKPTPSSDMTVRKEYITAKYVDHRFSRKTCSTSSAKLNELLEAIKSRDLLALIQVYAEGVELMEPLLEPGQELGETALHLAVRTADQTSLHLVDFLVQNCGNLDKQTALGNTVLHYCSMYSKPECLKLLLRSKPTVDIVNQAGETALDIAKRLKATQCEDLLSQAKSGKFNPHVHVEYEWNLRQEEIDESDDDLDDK

These compounds were tested against Arf-GAP with SH3 domain, ANK repeat and PH domain-containing protein 1 (Homo sapiens) (UniProt Q9ULH1) (assay: blockers of ASAP1-stimulated ARF1 GTP hydrolysis – biochemical, fluorescence polarization, primary screen (AID 624377;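 further: 0% = vehicle with enzyme and substrate and 100% = no enzyme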)). Conditions: GDP FP detection, at 16.5 µM, stronger effect = higher value.

SMILES	inhibition
CN1[C@@H]2CC[C@H]1CC(OC(=O)C(O)(c1ccccc1)c1ccccc1)C2 (stereo partly specified)	inactive: -12.6%
O=C(NCC1(N2CCCCC2)CCCCC1)c1cc([N+](=O)[O-])ccc1Cl	inactive: -0.9%
Cc1ccc(C(=O)NCC2(N3CCCCC3)CCCCC2)cc1	inactive: -7.91%
CC(C)N1C(=O)CC2(CCN(CCOC(=O)C(O)(c3ccccc3)c3ccccc3)CC2)C1=O	inactive: 15.1%
COc1cc(SC)ccc1C(=O)NCC1(N(C)C)CCCCC1	inactive: -11.4%
CCN(CC)CC(C)C(C)OC(=O)C(O)(c1ccccc1)c1ccccc1 (stereo unspecified)	inactive: 4.92%
CN(C)C1CCCC1OC(=O)C(O)(c1ccccc1)c1ccccc1 (stereo unspecified)	inactive: -6.23%
CN(C)c1ccc(C(=O)NCC2(N(C)C)CCCCC2)cc1	inactive: 2.92%
Cc1ccccc1C(=O)NCC1(N2CCCCC2)CCCCC1	inactive: -10.7%
O=C(NCC1(N2CCCCC2)CCCCC1)c1cccc(Br)c1	inactive: 3.71%
Cc1cc(C(=O)NCC2(N3CCCCC3)CCCCC2)ccc1[N+](=O)[O-]	inactive: 8.34%
CCN1CCCC(OC(=O)C2(O)c3ccccc3C=Cc3ccccc32)C1 (stereo unspecified)	inactive: 5.66%
COc1ccc(C(=O)NCC2(N(C)C)CCCCC2)cc1	inactive: 0.58%
O=C(NCC1(N2CCCCC2)CCCCC1)c1cc(F)c(F)cc1Cl	inactive: -1.51%
C=CCN1CCN(CCOC(=O)C(O)(c2ccccc2)c2ccccc2)CC1	inactive: -9.22%
COc1cc(C(=O)NCC2(N(C)C)CCCCC2)c([N+](=O)[O-])cc1OC	inactive: -5.83%
CN(C)C1(CNC(=O)c2ccc(Br)cc2)CCCCC1	inactive: -12.4%
O=C(NCC1(N2CCCCC2)CCCCC1)c1cccc(Cl)c1	inactive: 9.58%
COc1ccc(Cl)cc1C(=O)NCC1(N(C)C)CCCCC1	inactive: -1.35%
COc1cccc(C(=O)NCC2(N3CCCCC3)CCCCC2)c1	inactive: -20.2%
O=C(OC1CN2CCC1CC2)C(CO)(c1ccccc1)c1ccccc1 (stereo unspecified)	inactive: -1.51%
CN(C)c1cccc(C(=O)NCC2(N(C)C)CCCCC2)c1	inactive: 2.65%
O=C(OCCN1CCCC1)C(O)(c1ccccc1)c1ccccc1	inactive: -1.07%
CC(C)Oc1ccc(C(=O)NCC2(N(C)C)CCCCC2)cc1	inactive: 1.27%
COc1ccc(Br)c(C(=O)NCC2(N3CCCCC3)CCCCC2)c1	inactive: -1.59%
C=C(C)C#CC(O)(C(=O)OC1CCN(C)CC1)c1ccccc1 (stereo unspecified)	inactive: -5.34%
